Experimental data: ChEMBL document CHEMBL1649436, “Antiviral activity of MK-4965, a novel nonnucleoside reverse transcriptase inhibitor” (Antimicrob Agents Chemother, 2009)

Target: Human immunodeficiency virus type 1 reverse transcriptase (Human immunodeficiency virus 1, UniProt Q72547)
Test: Inhibition of HIV1 isolate R8 reverse transcriptase after 90 mins

Cc1cc(C#N)cc(C)c1Oc1nc(Nc2ccc(C#N)cc2)nc(N)c1Br [ETRAVIRINE] gave an IC50 of 0.6 nM.
